1 compound from ChEMBL document CHEMBL3588796, “Potency enhancement of the κ-opioid receptor antagonist probe ML140 through sulfonamide constraint utilizing a tetrahydroisoquinoline motif” (Bioorg Med Chem, 2015) can be followed below.

The chains behind the UniProt entries cited, without tags or fusion partners. Where a name states a change or a piece, a line headed by the entry shows the natural chain unless it says otherwise.
UniProt P41145: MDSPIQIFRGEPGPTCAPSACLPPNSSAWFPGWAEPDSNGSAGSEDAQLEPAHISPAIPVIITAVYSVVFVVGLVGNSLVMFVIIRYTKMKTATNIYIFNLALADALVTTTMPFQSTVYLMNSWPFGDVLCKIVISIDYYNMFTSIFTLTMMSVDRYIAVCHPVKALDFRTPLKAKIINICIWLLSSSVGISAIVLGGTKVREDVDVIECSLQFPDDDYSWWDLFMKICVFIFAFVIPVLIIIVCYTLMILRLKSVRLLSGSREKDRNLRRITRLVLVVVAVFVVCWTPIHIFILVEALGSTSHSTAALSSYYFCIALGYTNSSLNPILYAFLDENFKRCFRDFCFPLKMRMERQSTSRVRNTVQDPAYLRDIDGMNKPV

SMILES strings stand for the structures.

The target of the assay is Kappa-type opioid receptor (Homo sapiens, UniProt P41145). Kind of assay: Potency index, ratio of IC50 for ML140 to IC50 for test compound against human recombinant kappa opioid receptor.

For the compound `Cc1ccc(S(=O)(=O)N2CCc3cc(C(=O)NCCN(Cc4ccc(Cl)cc4)C(C)(C)C)ccc3C2)cc1`, the Ratio IC50 was 100.
